Results reported in publication PMC10014601, “The cyclic peptide G4CP2 enables the modulation of galactose metabolism in yeast by interfering with GAL4 transcriptional activity” (Frontiers in Molecular Biosciences, 2023).

Assay: PAMPA-BBB passive membrane permeability
Settings: PAMPA-BBB validation; porcine brain lipid in dodecane (20 mg/L); PBS/DMSO 95:5 pH 7.4; 40–100 μM donor; 18 h, 25°C; UV-vis; mean ± SD, four wells, three runs

Which “Pe,exp” value does the source give for `NCCc1ccc(O)c(O)c1` [Dopamine] here?
Its value is 0.22 ± 0.04 10-6 cm/s.
